Experimental data as given in US6583155B2, “Method for treating allergies using substituted pyrazoles” (priority 2000, dated 2003).

Sequences of proteins named here, by UniProt entry; tags and fusion partners are left off. Residues count along the entry.
UniProt P25774, 115-331: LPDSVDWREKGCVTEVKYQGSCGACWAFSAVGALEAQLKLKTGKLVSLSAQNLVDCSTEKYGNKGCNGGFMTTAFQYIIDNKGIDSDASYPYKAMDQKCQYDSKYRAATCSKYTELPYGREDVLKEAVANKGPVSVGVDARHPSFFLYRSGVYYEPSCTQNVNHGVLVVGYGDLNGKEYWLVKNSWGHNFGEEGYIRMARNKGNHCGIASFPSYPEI

Target: Recombinant human cathepsin S (CatS) (Homo sapiens, UniProt P25774)
Assay: biochemical

Structure (SMILES) | IC50
CS(=O)(=O)N1CCc2c(c(-c3ccc(C(F)(F)F)cc3)nn2CCCN2CCC(n3c(=O)n(CC#N)c4ccccc43)CC2)C1 [Example 9, [3-(1-{3-[5-Methanesulfonyl-3-(4-trifluoromethyl-phenyl)-4,5,6,7-tetrahydro-pyrazolo[4,3-c]pyridin-1-yl]-propyl}-piperidin-4-yl)-2-oxo-2,3-dihydro-benzoimidazol-1-yl]-acetonitrile] | 100 nM
Cn1c(=O)n(C2CCN(CCCn3nc(-c4ccc(C(F)(F)F)cc4)c4c3CCN(S(C)(=O)=O)C4)CC2)c2cc(Cl)ccc21 [Example 10, 5-Chloro-3-(1-{3-[5-methanesulfonyl-3-(4-trifluoromethyl-phenyl)-4,5,6,7-tetrahydro-pyrazolo[4,3-c]pyridin-1-yl]-propyl}-piperidin-4-yl)-1-methyl-1,3-dihydro-benzoimidazol-2-one] | 90 nM
